# Experimental data reported in PubChem BioAssay AID720533 (National Center for Advancing Translational Sciences (NCATS), 2013).
# The list shows a part of the results, in another mix than the full data. Records with an inconclusive call do not appear. Activity calls are given as the source filed them. Calls follow the shape of the full dose curve; tested in HEK293 cells.
# Assay: qHTS for Inhibitors of binding or entry into cells for Lassa Virus
# Conditions: Lassa virus pseudotyped entry inhibition, cell-based qHTS; series mostly up to 49.2 µM; activity change, negative = inhibition: at the top concentration
# % is scaled to controls: 0 for no effect and ±100 for the full control effect; potency is read from the fitted curve at half-maximal effect.
SMILES,"activity change, negative = inhibition",Potency
CCC(=O)N(c1ccccc1)C1(COC)CCN(CCn2nnn(CC)c2=O)CC1,inactive: -15.4%,–
CN(CCCl)CCCl,–,active: 3.16 µM
